## Measured affinities in a library of Ab-14 heavy chain variants

Source: Li et al. 2023 (doi:10.1038/s41467-023-39022-2), MIT Lincoln Laboratory and A-Alpha Bio; data file from the FLAb repository.

Antigen: PDVDLGDISGINAS, a 14-residue peptide of the SARS-CoV-2 spike HR2 region.

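The parent was found by panning a naive human phage display library on the peptide. Designed CDR sequences, proposed from the first random library and measured here. Several design methods are mixed in this list. In AlphaSeq, yeast of one mating type display the scFv and yeast of the other type display the target. Mating (16 h, 30 °C) was followed by selection of diploids and sequencing of their barcodes. Scores were corrected for input abundance and mapped to Kd with protein pairs of known affinity run in the same pool. There are six technical replicates.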

Ab-14 is the parent antibody, in scFv form: VH, then the linker GGGGSGGGGSGGGGS, then VL. The light chain is unchanged in all variants.
VH: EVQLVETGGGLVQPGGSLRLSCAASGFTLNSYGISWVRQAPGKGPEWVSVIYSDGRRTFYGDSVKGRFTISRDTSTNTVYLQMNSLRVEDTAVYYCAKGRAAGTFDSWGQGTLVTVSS
VL: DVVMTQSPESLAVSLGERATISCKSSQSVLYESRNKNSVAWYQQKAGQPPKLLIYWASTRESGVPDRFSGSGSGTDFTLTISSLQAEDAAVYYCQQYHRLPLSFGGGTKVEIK

The parent's heavy chain CDRs are GFTLNSYGIS, VIYSDGRRTFYGDSVK, GRAAGTFDS; each variant's own CDRs replace them letter for letter. This list holds designs with more than six substitutions. The read-out is the apparent dissociation constant on a log10 scale (nM): the lower, the stronger. A mean of the replicates is given; it leaves out those without a signal. "nd" means that the variant was in the library but no mating with the target was seen in any replicate; the authors take this as a sign of poor binding, and no number exists. Background: pairings of all heavy chain designs with three empty control strains gave a value in 1% of cases (median 2.08, 5th percentile 0.84). Values in that range, when seen in few replicates, are hard to tell from nonspecific mating. The control count says in how many pairings with the empty strains this scFv gave a signal. The authors averaged sequences with at least three values out of six and counted those with two or fewer as poor binders. Values of this round are not directly comparable with the first-round values of the same sequences.

For GFDLEDYGIS / VIYADGRRTAYADSVK / GEIAGTFDL, the assay gave -0.72 (5 of 6 replicates; controls 0 of 18). With GYDIEEMGIS / VIYADGKRNAYANSVK / GKWAGAFVD the result was nd (0 of 6 replicates; controls 0 of 18). Variant GFDVNEQGIS / VIYADGTRTAYANTVK / GKVVGVFGD showed nd (0 of 6 replicates; controls 0 of 18). With GFDLNEYGIS / VIYADGKRTVYADSVK / GENAGTFDV the result was -1.10 (6 of 6 replicates; controls 1 of 18). For GFDFNEYGIS / VIYADGKRTAYADKFK / GGKSAFTDI, the assay gave nd (0 of 6 replicates; controls 1 of 18).

Variant GMDLEEYGIS / VIYADGLRSAYVDAVK / GGVGDVDFV showed nd (0 of 6 replicates; controls 0 of 18). Variant GFDLNEYGIS / VIYADGMRTAYTDNVK / GNVAGTFDL gave -0.55 (6 of 6 replicates; controls 0 of 18). Variant GFDLNEYGIS / VIYADGKRTAYIDSVK / GEAAGTFDK showed -0.34 (6 of 6 replicates; controls 0 of 18). With GFNLDEYGIS / VIYADGMRTAYTDSVK / GNVAGTFDI the result was -0.11 (6 of 6 replicates; controls 0 of 18). Variant GFQLDEYGIS / VIYADGRRTFYADSVK / GEVAGTFDV gave -0.79 (6 of 6 replicates; controls 1 of 18).

For GEDLLEYGIS / VIYADGSRVAYTNAVK / GNLAGVFDL, the assay gave 2.10 (6 of 6 replicates; controls 2 of 18). For GFEIEEYGIS / VIYADGVRTMYTDNVK / GNILGLALT, the assay gave nd (0 of 6 replicates; controls 0 of 18). With GFDLNEYGIS / VIYADGRRKFYADDVK / GENAGTFDV the result was -0.83 (6 of 6 replicates; controls 0 of 18). Variant GFEIQEYGIS / VIYADGRRTAYAESVK / GTLGGTFST showed 0.09 (6 of 6 replicates; controls 0 of 18). Variant GFKINEYGIS / VIYADGQRVAYTNSFK / GTQAGQFIN gave nd (0 of 6 replicates; controls 0 of 18).

Variant GFDLNEYGIS / VIYADGRRTAYIDSVK / GQVAGTFDS showed -0.50 (6 of 6 replicates; controls 1 of 18). Variant GKKLDEYGIS / VIYADGMRTMYTDSVK / GQLDDGMQL gave nd (0 of 6 replicates; controls 1 of 18). For GFDLNEYGIS / VIYADGRRTFYSDSVK / GSNGGTFDI, the assay gave -0.09 (5 of 6 replicates; controls 0 of 18). Variant GDSLDEYGIS / VIYADGQRKAYSDNVK / GVGQAVLFD showed nd (0 of 6 replicates; controls 0 of 18). With GVELDEYGIS / VIYADGRRRFYADDVK / GNDIGGFDL the result was nd (0 of 6 replicates; controls 0 of 18).

For GFDLNEYGIS / VIYADGVRTSYVDSVK / GENAGTFDV, the assay gave 0.82 (3 of 6 replicates; controls 0 of 18). Variant GFDLNEYGIS / VIYADGMRTAYANSVK / GNQAGTFDV showed 0.69 (6 of 6 replicates; controls 0 of 18). Variant GFNLEDYGIS / VIYADGMRTFYVDSVK / GKVAGTFDV showed 0.08 (6 of 6 replicates; controls 0 of 18). Variant GADLNEYGIS / VIYADGDRKAYQDDFK / GTVGGDFDE showed 0.60 (6 of 6 replicates; controls 0 of 18). With GFDLNEYGIS / VIYADGVRSYYADSVK / GENAGTFDV the result was -0.41 (6 of 6 replicates; controls 0 of 18).

Variant GFDLNEYGIS / VIYADGKRTFYADSVK / GEVAGTFDV showed -0.94 (6 of 6 replicates; controls 0 of 18). For GFDLNEYGIS / VIYADGRRTFYTDNVK / GQNAGTFDM, the assay gave -0.73 (6 of 6 replicates; controls 0 of 18). Variant GFDLDEMGIS / VIYADGVRTAYIDQVK / GMKGDFMNT showed nd (0 of 6 replicates; controls 0 of 18). Variant GFDLDEYGIS / VIYADGRRTYYQDSVK / GNVAGTFDS showed -0.49 (6 of 6 replicates; controls 0 of 18). Variant GFEIQEFGIS / VIYADGIRTNYSQNVK / GTLAGTFTT showed 0.81 (6 of 6 replicates; controls 0 of 18).

Variant GFNLDEYGIS / VIYADGRRTAYSDSVK / GEVAGTFDV gave -0.33 (6 of 6 replicates; controls 1 of 18). Variant GFDLESYGIS / VIYADGRRTAYSDSVK / GENAGTFDI showed -0.17 (6 of 6 replicates; controls 0 of 18). With GFDLEEYGIS / VIYADGRRTAYSDSVK / GNVAGTFDL the result was 0.24 (6 of 6 replicates; controls 0 of 18). Variant GFDLDEYGIS / VIYADGMRTFYTDSVK / GEAAGTFDQ gave -0.08 (6 of 6 replicates; controls 0 of 18). For GFDLDEYGIS / VIYADGKRTVYADSVK / GNVAGTFDV, the assay gave -1.07 (3 of 6 replicates; controls 0 of 18).

With GFDLNEYGIS / VIYADGLRTAYADSVK / GQNAGTFDV the result was -0.33 (6 of 6 replicates; controls 0 of 18).

The 3 strongest on average among those seen in every replicate, once more:

CDR-H1	CDR-H2	CDR-H3	log10 Kd (nM), mean	seen in	empty controls
GFDLNEYGIS	VIYADGKRTVYADSVK	GENAGTFDV	-1.10	6/6	1/18
GFDLNEYGIS	VIYADGKRTFYADSVK	GEVAGTFDV	-0.94	6/6	0/18
GFDLNEYGIS	VIYADGRRKFYADDVK	GENAGTFDV	-0.83	6/6	0/18